This test deals with Sigma-2 receptor (Rattus norvegicus). As to the kind of experiment: Displacement of [3H]-di-o-tolylguanidine from sigma-2 receptor in rat liver homogenate at 1 uM by liquid scintillation counting. (In general: Displacement assays read how much labelled ligand stays bound in the presence of the test substance.)

Regarding `O=C1CCN[C@H]([C@H]2COC(c3ccccc3)(c3ccccc3)O2)C1` (racemic), the inhibition (in general, how much of the control response was suppressed) was 36%. For the compound `O=C1CCN[C@H]([C@@H]2COC(c3ccccc3)(c3ccccc3)O2)C1` (racemic), the inhibition was 54%.
